From PubChem BioAssay (NCI)
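Each compound was tested at five concentrations against cells in 96-well plates for 48 hours. GI50: concentration for 50% inhibition of growth.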

Tests used:
Assay in all cases: NCI anticancer screen, dose series, 48 h; in the data active = GI50 below about 0.43 µM; inactive = the rest
786-0 renal = test system: 786-0 renal
U251 CNS = test system: U251 CNS
CAKI-1 renal = test system: CAKI-1 renal
SK-MEL-28 melanoma = test system: SK-MEL-28 melanoma
NCI-H322M lung = test system: NCI-H322M lung
MOLT-4 leukemia = test system: MOLT-4 leukemia
SK-MEL-2 melanoma = test system: SK-MEL-2 melanoma
OVCAR-3 ovarian = test system: OVCAR-3 ovarian
SN12C renal = test system: SN12C renal
K-562 leukemia = test system: K-562 leukemia
HT29 colon = test system: HT29 colon
A549 NSCLC = test system: A549 NSCLC
SK-OV-3 ovarian = test system: SK-OV-3 ovarian
M19-MEL melanoma = test system: M19-MEL melanoma
TK-10 renal = test system: TK-10 renal
UO-31 renal = test system: UO-31 renal
HCT-116 colon = test system: HCT-116 colon
OVCAR-5 ovarian = test system: OVCAR-5 ovarian
IGROV1 ovarian = test system: IGROV1 ovarian
LXFL 529 NSCLC = test system: LXFL 529 NSCLC
SF-539 CNS = test system: SF-539 CNS
HOP-18 NSCLC = test system: HOP-18 NSCLC
RPMI-8226 leukemia = test system: RPMI-8226 leukemia
DMS 114 small cell lung = test system: DMS 114 small cell lung
SNB-78 CNS = test system: SNB-78 CNS
KM20L2 colon = test system: KM20L2 colon
SR leukemia = test system: SR leukemia
HCT-15 colon = test system: HCT-15 colon
UACC-257 melanoma = test system: UACC-257 melanoma
NCI-H23 lung = test system: NCI-H23 lung
LOX IMVI melanoma = test system: LOX IMVI melanoma
DLD-1 colon = test system: DLD-1 colon
COLO 205 colon = test system: COLO 205 colon
RXF-631 renal = test system: RXF-631 renal
SF-295 CNS = test system: SF-295 CNS
UACC-62 melanoma = test system: UACC-62 melanoma
OVCAR-4 ovarian = test system: OVCAR-4 ovarian
CCRF-CEM leukemia = test system: CCRF-CEM leukemia
NCI-H460 lung = test system: NCI-H460 lung
EKVX NSCLC = test system: EKVX NSCLC
XF 498 CNS = test system: XF 498 CNS
RXF 393 renal = test system: RXF 393 renal
M14 melanoma = test system: M14 melanoma
HOP-92 NSCLC = test system: HOP-92 NSCLC
MALME-3M melanoma = test system: MALME-3M melanoma
SF-268 CNS = test system: SF-268 CNS
OVCAR-8 ovarian = test system: OVCAR-8 ovarian
SW-620 colon = test system: SW-620 colon
SK-MEL-5 melanoma = test system: SK-MEL-5 melanoma
KM12 colon = test system: KM12 colon
NCI-H226 lung = test system: NCI-H226 lung
HCC-2998 colon = test system: HCC-2998 colon
ACHN renal = test system: ACHN renal

Measured: GI50

CC1=CC2OC3CC(OC(=O)/C=C/C=C/C(OCCC4=CC(=O)OC4)C(C)O)C(C)(C2(CO)CC1)C31CO1 (stereo not drawn)
inactive: 786-0 renal 2110 nM | U251 CNS 1700 nM | CAKI-1 renal 3250 nM | SK-MEL-28 melanoma 2000 nM | NCI-H322M lung 8870 nM | MOLT-4 leukemia 636 nM | SK-MEL-2 melanoma 2000 nM | OVCAR-3 ovarian 2200 nM | SN12C renal 3150 nM | K-562 leukemia 1370 nM | HT29 colon 2270 nM | A549 NSCLC 3180 nM | SK-OV-3 ovarian 4020 nM | M19-MEL melanoma 1940 nM | TK-10 renal 3310 nM | UO-31 renal 8770 nM | HCT-116 colon 2370 nM | OVCAR-5 ovarian 5310 nM | IGROV1 ovarian 1990 nM | LXFL 529 NSCLC 647 nM | SF-539 CNS 1890 nM | HOP-18 NSCLC 15600 nM | RPMI-8226 leukemia 1210 nM | DMS 114 small cell lung 2320 nM | SNB-78 CNS 4070 nM | KM20L2 colon 2520 nM | SR leukemia 533 nM | HCT-15 colon 2510 nM | UACC-257 melanoma 3120 nM | NCI-H23 lung 1790 nM | LOX IMVI melanoma 1330 nM | DLD-1 colon 2040 nM | COLO 205 colon 2100 nM | RXF-631 renal 3840 nM | SF-295 CNS 3480 nM | UACC-62 melanoma 2120 nM | OVCAR-4 ovarian 4040 nM | CCRF-CEM leukemia 1310 nM | NCI-H460 lung 1630 nM | EKVX NSCLC 2360 nM | XF 498 CNS 1980 nM | RXF 393 renal 1800 nM | M14 melanoma 1460 nM | HOP-92 NSCLC 1820 nM | MALME-3M melanoma 1480 nM | SF-268 CNS 2960 nM | OVCAR-8 ovarian 3360 nM | SW-620 colon 2530 nM | SK-MEL-5 melanoma 484 nM | KM12 colon 2620 nM | NCI-H226 lung 3280 nM | HCC-2998 colon 1800 nM | ACHN renal 4550 nM
